The values that follow come from US9637768B2, “Method for preparing sialic acid derivative” (priority 2013, dated 2017).

Data set [1] has as its system CC(=O)N[C@H]1[C@H]([C@H](O)[C@H](O)CO)O[C@](OP(=O)(O)OC[C@H]2O[C@@H](n3ccc(N)nc3=O)[C@H](O)[C@@H]2O)(C(=O)O)C[C@@H]1O. The data set can be described thus: purified protein, by the assay type. Conditions: other: wild type.
In data set [2] the test system is OC[C@H]1O[C@@H](O[C@H]2[C@H](O)[C@@H](O)C(O)O[C@@H]2CO)[C@H](O)[C@@H](O)[C@H]1O. The data set can be described thus: purified protein, by the assay type. Conditions: other: wild type.

Take “Photobacterium damselae (ATCC29690) α-2,6-sialyltransferase (α2,6PdST), wild type (Photobacterium damselae)”: the figures for the Michaelis constant (Km) in data set [1] and in data set [2] were 5.47 mM and 9.03 mM, respectively.
